We go through 1 compound from patent US10724034B2, “Genetic encoding of chemical post-translational modification for phage-displayed libraries” (THE GOVERNORS OF THE UNIVERSITY OF ALBERTA, priority 2014, dated 2020).

Chains of the proteins cited; added tags and fusions are not shown.
UniProt P17931, whole entry: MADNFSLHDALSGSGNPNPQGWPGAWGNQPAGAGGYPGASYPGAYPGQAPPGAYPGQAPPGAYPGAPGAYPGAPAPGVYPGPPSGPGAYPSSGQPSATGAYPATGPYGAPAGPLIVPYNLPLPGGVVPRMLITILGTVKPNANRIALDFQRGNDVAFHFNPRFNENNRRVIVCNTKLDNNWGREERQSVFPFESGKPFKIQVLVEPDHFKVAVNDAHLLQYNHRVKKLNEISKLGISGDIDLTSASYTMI

This experiment addresses human Galectin-3 (Homo sapiens, UniProt P17931). As to the kind of experiment: ELISA-like competition assay: inhibition of HRP-Lactose binding to surface-immobilized Galectin-3. The text has this: Using an ELISA-like competition assay (FIGS. 12, 13), the binding activity of these glycopeptides to carbohydrate recognition domain (CRD) of the human Galectin-3 and their ability to compete with binding of Lactose-conjugated horseradish peroxidase (HRP), were validated (FIG. 12). As references, we used known Gal3 ligands, such as lactose, Methyl-β-D-galactopiranoside (MeGal) and tetrasaccharide Lacto-N-Tetraose (LNT).
FIG. 12 illustrates an evaluation of activity of hits identified from genetically-encoded libraries of glycopeptides against […]. The assay measures that inhibitory constant (denoted as Effective concentrations of half-maximal response or EC50) of compounds in the inhibition of the interaction between soluble HRP-Lactose and surface-immobilized Galectin-3.
Xylose-linked to the tetrapetide Xyl-ALRV (SEQ ID NO:107) compete with HRP-Lac with IC50 similar to MeGal. […] The competitive activity is quantified as decrease in color development by HRP-lac conjugate bound to Galectin-3 coated at 10 μg/ml concentration on polystyrene 96-well plates. […] This activity was in the same order of the LNT, which was reported that binds to Galectin-3 with a Kd of 97 nanomolars.
In general terms: In an ELISA, binding on a coated surface is turned into a signal by an enzyme label.

On to `C[C@H](NC(=O)[C@@H]1CCCN1C(=O)C=NO[C@@H]1O[C@H](CO)[C@H](O)[C@H](O)[C@H]1O)C(=O)N1CCC[C@H]1C(=O)N[C@H](C(N)=O)[C@@H](C)O`, for which the “Times better than LNT at inhibiting HRP-Lac binding to immobilized Galectin-3” value (versus LNT) worked out at 5 times. For the same compound, the “Times better than Lactose at inhibiting HRP-Lac binding to Galectin-3” value (versus Lactose) is given as 30 times. Also, the “Times more potent than MeGal at inhibiting HRP-Lac binding to Galectin-3” value (versus MeGal) was greater than 1500 times.
